Results on 1 molecule are retold here after article PMC8405639, “2-Carba-lysophosphatidic acid is a novel β-lysophosphatidic acid analogue with high potential for lysophosphatidic acid receptor activation and autotaxin inhibition” (Scientific Reports, 2021).

Entries after “also recorded” stand apart in the source; their conditions may differ.

The assay concerns the target T1, human recombinant ATX (Homo sapiens, UniProt Q13822).
T1 construct: purchased Cayman Chemical
Kind of assay: Choline oxidase assay of LPC cleavage by ATX. It is filed as biochemical. To be noted: LPC 16:0 300 µM, ATX 50 nM, 2 h, 37 °C, various concentrations. As for the experimental part: (a) Concentration–response curves for the inhibition of ATX activity as measured by the […] of the substrate lysophosphatidylcholine (LPC) using choline oxidase and peroxidase. LPC 16:0 (final concentration: 300 µM, above its critical micellar concentration [CMC]), human recombinant ATX (final concentration: 50 nM), and various concentrations of cPA analogues were used for incubation with 4-aminoantipyrine, TOOS (final concentration: 0.05% (w/v) each), choline oxidase and peroxidase (final concentration: 10 U/mL each) in the ATX assay buffer. […] Inhibition was calculated as percentage (%) of reduction in absorbance compared with absorbance in the vehicle control (without cPA analogues) after subtraction of the value measured at time 0. Data are represented as mean ± standard deviation (n = 3–4 samples). (b) Inhibition of ATX activity measured by lysophosphatidic acid (LPA 16:0) production via liquid chromatography coupled to triple quadrupole mass spectrometry (LC-QqQ). The substrate LPC 16:0 (final concentration: 300 µM) was incubated with human recombinant ATX (final concentration: 50 nM) and cPA analogues (final concentration: 10 μM) for 2 h at 37 °C. The ATX product, LPA 16:0, was quantified by LC-QqQ. Inhibition was calculated as percentage (%) of reduction in LPA production compared with LPA production in the vehicle control (without cPA analogues). […]

As for `CCCCCCCCC=CCCCCCCCC(=O)OCC(O)COP(=O)(O)O` (stereo not shown) [LPA 18:1, 1-Oleoyl-LPA], the “Inhibition of lysoPLD activity of ATX (choline oxidase assay)” value is on record as “almost no inhibitory activity; also recorded: does not inhibit ATX”.
